The assay has as its target vesamicol receptors (Rattus norvegicus, UniProt Q62666). Nature of the assay: Inhibition experiment: inhibition of binding of radioactive-iodine-labeled DRC140 to P2 fractions. As to conditions: read-out: IC50 (nM) Average ± S.D, Table 7, Binding site names the inhibitor's own site.

Protein sequences, listed by entry. Tags and fused reporters are not part of them. Lines headed by an entry give the natural chain unless they say otherwise; changes in a name come on top.
UniProt Q62666: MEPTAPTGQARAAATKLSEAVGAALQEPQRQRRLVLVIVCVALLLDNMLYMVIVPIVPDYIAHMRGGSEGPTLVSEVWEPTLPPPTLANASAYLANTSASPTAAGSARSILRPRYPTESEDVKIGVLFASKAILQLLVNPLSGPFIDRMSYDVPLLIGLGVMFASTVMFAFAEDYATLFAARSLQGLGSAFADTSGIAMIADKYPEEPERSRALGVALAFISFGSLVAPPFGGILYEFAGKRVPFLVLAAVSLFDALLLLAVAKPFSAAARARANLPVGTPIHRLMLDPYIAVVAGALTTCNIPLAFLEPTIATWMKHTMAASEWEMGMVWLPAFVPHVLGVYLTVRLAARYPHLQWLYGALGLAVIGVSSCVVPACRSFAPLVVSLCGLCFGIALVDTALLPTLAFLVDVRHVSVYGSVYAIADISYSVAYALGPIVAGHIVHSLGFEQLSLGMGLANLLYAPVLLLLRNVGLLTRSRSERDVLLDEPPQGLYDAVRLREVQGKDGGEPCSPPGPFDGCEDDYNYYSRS

What is called IC50 is the point on the concentration scale where inhibition reaches its midpoint. Take 5,7-Kynurenic acid: the concentration for half-maximal inhibition (IC50) is more than 5000 nM.

For the origin of these results see patent publication EP1205473A1, “VESAMICOL PIPERAZINE DERIVATIVES AND DRUGS CONTAINING THE SAME” (DAIICHI RADIOISOTOPE LABORATORIES, LTD., priority 1999, dated 2001).
